Yeast mating assay B: variants of the scFv Ab-14

The target is the same throughout: PDVDLGDISGINAS, from the HR2 region of SARS-CoV-2 spike.

The variants keep the heavy chain, the linker and the frameworks of Ab-14 (scFv order VH, a 15-residue (Gly4Ser)3 linker, VL).
VH: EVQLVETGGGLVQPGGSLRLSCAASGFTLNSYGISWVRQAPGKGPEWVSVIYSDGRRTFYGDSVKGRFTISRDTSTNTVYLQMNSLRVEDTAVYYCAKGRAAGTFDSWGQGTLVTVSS
VL: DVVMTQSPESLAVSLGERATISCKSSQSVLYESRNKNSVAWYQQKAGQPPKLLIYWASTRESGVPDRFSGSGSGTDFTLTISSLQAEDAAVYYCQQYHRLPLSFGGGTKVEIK

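The starting antibody came from a phage panning campaign against this peptide. These sequences belong to a second round, designed from the earlier measurements on random variants of the parent. Several design methods are mixed in this list. AlphaSeq pools MATa yeast showing the antibodies with MATalpha yeast showing the peptide. After mating in shaken culture at 30 °C for 16 h, diploids were selected and their barcode pairs sequenced. Each replicate has its own calibration line, from reference interactions of the BCL2 family. There are six technical replicates.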

The parent's light chain CDRs are KSSQSVLYESRNKNSVA, WASTRES, QQYHRLPLS; each variant's own CDRs replace them letter for letter. Numbers give log10(Kd / nM), so 0 is 1 nM and 3 is 1 µM. Smaller is tighter. Replicates are averaged; those with no signal do not enter the mean. "ND" marks a missing value. The strain was present, yet no cells mated with the target were sequenced in that replicate, which points to weak or no binding.

"log10 Kd, replicates","log10 Kd (nM), mean",CDR-L1,CDR-L2,CDR-L3
1.37 / 0.33 / 0.43 / 0.57 / 0.55 / 0.82,0.68,KTSQSVLYESRNKNSVA,SASTRES,QQYHRLPLS
2.18 / 1.18 / 1.41 / 2.50 / 1.76 / 1.45,1.75,KLQGSELYEERNDNSVA,QASQRES,QDYHRLPLS
0.40 / 1.19 / 0.17 / 0.56 / 0.73 / 0.64,0.61,KSSQSWLYESRNKNSVA,EASTRES,QQYHRLPLH
ND / ND / ND / ND / ND / ND,ND,KSSQSVLYESRNKNSVA,EASTRES,QQYHRNPLS
-0.01 / -0.22 / 0.15 / -0.32 / -0.37 / -0.33,-0.18,TLGYNTMVESIKKNNVA,EMSTRVN,QQYVRLPLA
1.76 / 2.04 / 1.44 / 1.67 / 1.72 / 2.51,1.85,TIGHTLMQGIRNRSNVA,EVSQRLN,QQYDRLPLI
1.31 / 0.95 / 0.84 / 0.75 / 0.96 / 0.98,0.97,KSSVSVLSESRNKNSVA,AASTRES,QQYHRLPLS
2.04 / 1.31 / 1.73 / 1.90 / 1.43 / 1.01,1.57,KSSQSVTYESRNKNSVA,MASTRVS,QQYHRLPLS
ND / ND / ND / ND / ND / ND,ND,KVSQSVLYESRLKNSVA,NASTRES,QQMHRLPLS
-0.06 / -0.31 / -0.30 / -0.48 / -0.14 / 0.09,-0.20,KQSQSEACESRNKNSVA,DASTRES,QQYHRLPLS
0.05 / 0.03 / -0.11 / -0.15 / -0.10 / 0.10,-0.03,KLSQQNLYESRNKNSVA,NASTRES,QQYHRLPLS
2.13 / 1.97 / ND / 1.64 / 2.46 / 1.76,1.99,KSSQSVLYEMWNTNSVA,AASTRES,QQYHRLPLS
-0.38 / -0.42 / -0.47 / -0.62 / -0.50 / -0.36,-0.46,DSSQSWLYESRNKNSVA,GASTRED,QQYHRLPLS
0.84 / 1.24 / 1.00 / 0.98 / 0.96 / 1.24,1.04,KLSQSVMGGSRNKWSVA,NASQREQ,QQYHRLPLS
0.01 / -0.03 / -0.21 / -0.08 / -0.04 / -0.09,-0.07,SVTRYTDENGLKMNSVA,DAAERMT,QQYHRLPLT
-0.23 / -0.15 / -0.10 / -0.33 / -0.03 / 0.10,-0.12,ALSQSADMTSRNKNSVA,DLSTREN,QQYHRLPLS
0.09 / 0.30 / 0.04 / 0.06 / -0.10 / 0.25,0.11,KLSPSWWYESRNKANVA,HASTRES,QQYHRLPLS
1.23 / 0.78 / 0.55 / 0.65 / 0.56 / 0.57,0.72,KLYQSQLYESRNKNSVA,QASHREM,QQYHRLPLS
-0.39 / -0.25 / -0.44 / -0.63 / -0.55 / -0.63,-0.48,KLSQSVLYEERNKNSVA,NASQRMS,QQYHRLPLS
-0.02 / -0.01 / -0.25 / -0.37 / -0.01 / 0.01,-0.11,KVSILDLGGDRNKNSVA,HASLREQ,QQYHRLPLS
0.87 / 2.02 / 1.82 / 0.79 / 1.17 / 1.81,1.41,KSSQQVLYESESKNSVA,HASTRES,QQYHRLPLS
1.93 / 1.90 / 2.98 / 1.60 / 1.72 / 3.19,2.22,KSSQSVGYESRNKNSVA,WASTRES,QQYHRLPLS
ND / ND / ND / ND / ND / ND,ND,TISQSVLMTGLNRNSVA,QAEERLT,QQYHRLPLS
ND / 1.97 / 0.87 / 1.42 / 0.89 / 2.00,1.43,HFSVETMEFMGQNKNIA,EVTTTML,QQYARLPFI
0.17 / -0.15 / -0.20 / -0.35 / -0.58 / 0.29,-0.14,ALSIQQQENTQIVNSIA,QTSLREH,QQYHHLPLC
1.38 / 1.12 / ND / 1.63 / ND / 0.84,1.24,MISQLYNMGQFAINSVA,QASQRCE,QQYDRLPLQ
0.48 / 0.29 / 0.26 / 0.47 / 1.31 / 0.34,0.53,KLPQSQLYESRNKNSVA,NASTREV,QQYHRLPLS
ND / ND / ND / ND / ND / ND,ND,KSSTSLPYESRNVNSVA,WAEKRES,QQYHRLPAS
0.96 / 1.02 / 1.03 / 1.03 / 0.86 / 0.97,0.98,KLRQVTGYESYLKNSVA,QTSTRAE,QDYHRLPLS
0.66 / 0.36 / 0.43 / 0.41 / 0.35 / 0.12,0.39,KFSQMVLTGSYVKNSVA,QSSTREN,QQYHRLPLS
0.05 / 0.14 / -0.14 / -0.05 / 0.07 / 0.34,0.07,KSDQSVLDESRNKNSVA,EASTRES,QQYHRLPLS
0.14 / 0.18 / 0.10 / 0.02 / 0.06 / 0.29,0.13,MISDATMYGSRNKNSVA,DLSTRGS,QQYHRLPLS
2.30 / 2.07 / 2.22 / ND / 1.94 / 1.99,2.10,TISQSANMESHAKNSVA,DLNLRGS,QQYDRLPLS
1.47 / 1.38 / 0.99 / 0.56 / 0.83 / 0.76,1.00,KMEQSDWLQSRNVNSVA,QASTRES,QQYHRLPLS
0.32 / 0.30 / 0.09 / 0.20 / 0.20 / 0.41,0.25,KISQSVLDESRNKNSVA,AASTRAH,QQYHRLPLS
0.26 / 0.00 / 0.08 / -0.18 / -0.20 / 0.08,0.01,KFQQSDGYESRNKNSVA,EASTRSS,QQYHRLPLS
0.18 / 0.16 / 0.10 / -0.02 / -0.02 / 0.16,0.09,KLSQVTEYESRNKNSVA,DLTTRGS,QDYHRLPLS
-0.55 / -0.43 / -0.71 / -0.78 / -0.69 / -0.59,-0.63,HLSQSVLYESRNKNSVA,NGSTREV,QQYHRLPLS
-0.10 / -0.19 / -0.19 / -0.10 / -0.29 / -0.01,-0.15,KVSQSVLYESRNKNSVA,EASTREL,QQYHRLPLS
1.40 / 1.57 / 1.74 / 2.77 / 1.67 / 1.73,1.81,KSMQSVLYESRNKNSVA,EASTRES,QQYHILPLN
1.72 / 1.00 / 1.24 / 0.98 / 1.11 / 1.10,1.19,KSSQSVLYESRNKNSVA,NASTRES,QQYFRLPLY

Excerpt, the first 5 entries:

CDR-L1,CDR-L2,CDR-L3,"log10 Kd, replicates","log10 Kd (nM), mean"
KTSQSVLYESRNKNSVA,SASTRES,QQYHRLPLS,1.37 / 0.33 / 0.43 / 0.57 / 0.55 / 0.82,0.68
KLQGSELYEERNDNSVA,QASQRES,QDYHRLPLS,2.18 / 1.18 / 1.41 / 2.50 / 1.76 / 1.45,1.75
KSSQSWLYESRNKNSVA,EASTRES,QQYHRLPLH,0.40 / 1.19 / 0.17 / 0.56 / 0.73 / 0.64,0.61
KSSQSVLYESRNKNSVA,EASTRES,QQYHRNPLS,ND / ND / ND / ND / ND / ND,ND
TLGYNTMVESIKKNNVA,EMSTRVN,QQYVRLPLA,-0.01 / -0.22 / 0.15 / -0.32 / -0.37 / -0.33,-0.18

The authors averaged sequences with at least three values out of six and counted those with two or fewer as poor binders. Background: pairings of all light chain designs with three empty control strains gave a value in 4% of cases (median 2.64, 5th percentile 1.59). Values in that range, when seen in few replicates, are hard to tell from nonspecific mating. The range of this assay differs from that of the first round, and the authors advise against merging the two. Of ten entries with the parent sequence, four were seen in most replicates (averages 0.34 to 2.37), three in one and three in none, so single entries are noisy.

Values reported by Li et al. 2023, doi:10.1038/s41467-023-39022-2 (FLAb copy).